Values of other authors as cited in patent US11965206B2, “Method of dosing a patient with multiple drugs using adjusted phenotypes of CYP450 enzymes” (priority 2018, dated 2024).

By UniProt entry, the sequences of proteins in these tests, tags left out.
UniProt P10635, whole entry: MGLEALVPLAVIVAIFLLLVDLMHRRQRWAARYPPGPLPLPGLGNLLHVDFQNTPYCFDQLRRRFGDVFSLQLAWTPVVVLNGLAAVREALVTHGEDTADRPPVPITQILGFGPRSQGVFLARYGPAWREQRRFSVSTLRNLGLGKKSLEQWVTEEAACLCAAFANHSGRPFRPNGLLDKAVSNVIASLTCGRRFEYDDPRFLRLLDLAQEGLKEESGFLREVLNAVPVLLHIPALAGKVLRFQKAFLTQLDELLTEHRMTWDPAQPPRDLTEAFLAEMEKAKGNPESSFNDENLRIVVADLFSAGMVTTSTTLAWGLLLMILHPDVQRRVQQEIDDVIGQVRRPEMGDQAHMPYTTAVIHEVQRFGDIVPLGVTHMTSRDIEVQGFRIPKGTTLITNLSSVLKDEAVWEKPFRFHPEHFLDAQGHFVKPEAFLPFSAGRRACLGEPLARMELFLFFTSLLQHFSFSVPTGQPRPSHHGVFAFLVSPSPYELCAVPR
UniProt P08684, whole entry: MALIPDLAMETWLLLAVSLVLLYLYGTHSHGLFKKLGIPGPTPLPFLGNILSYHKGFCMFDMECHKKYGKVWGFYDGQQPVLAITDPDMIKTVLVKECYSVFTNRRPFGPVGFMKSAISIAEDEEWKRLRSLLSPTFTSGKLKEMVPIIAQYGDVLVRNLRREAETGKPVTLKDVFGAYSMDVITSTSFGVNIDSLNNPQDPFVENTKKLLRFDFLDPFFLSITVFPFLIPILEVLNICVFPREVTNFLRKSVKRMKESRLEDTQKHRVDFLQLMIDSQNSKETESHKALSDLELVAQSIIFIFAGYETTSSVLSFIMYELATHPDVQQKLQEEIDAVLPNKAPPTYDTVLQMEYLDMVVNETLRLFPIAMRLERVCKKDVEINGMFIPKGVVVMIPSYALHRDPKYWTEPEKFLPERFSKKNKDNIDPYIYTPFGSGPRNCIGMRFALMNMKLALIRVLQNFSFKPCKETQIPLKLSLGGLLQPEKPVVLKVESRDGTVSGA

Tests used:
[1] = biological target: CYP450 enzyme 2D6 (Homo sapiens, UniProt P10635); details: found in drug databases
[2] = biological target: CYP450 enzyme 3A4 (Homo sapiens, UniProt P08684); details: found in drug databases

strong, moderate or weak inhibitor of 2D6 [1]	SMILES	substrate for 3A4 [2]
strong inhibitor	CNCCC(Oc1ccc(C(F)(F)F)cc1)c1ccccc1 (centres unmarked) [Prozac]	
	O=C(CCCN1CCC(O)(c2ccc(Cl)cc2)CC1)c1ccc(F)cc1 [Haldol]	substrate
